AlphaSeq binding of Ab-14 light chain variants to a spike HR2 peptide

Target peptide (SARS-CoV-2 spike, HR2 region): PDVDLGDISGINAS

Parent scFv Ab-14: VH joined to VL by a 15-residue (Gly4Ser)3 linker. Changes lie in the light chain CDRs alone.
VH: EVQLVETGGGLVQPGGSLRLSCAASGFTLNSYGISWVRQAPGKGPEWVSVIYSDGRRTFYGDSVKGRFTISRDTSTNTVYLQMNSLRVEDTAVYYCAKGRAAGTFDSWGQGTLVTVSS
VL: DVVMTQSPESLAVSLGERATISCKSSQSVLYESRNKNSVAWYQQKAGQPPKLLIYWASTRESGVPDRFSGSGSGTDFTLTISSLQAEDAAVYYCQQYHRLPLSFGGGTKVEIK

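The parent was found by panning a naive human phage display library on the peptide. Designed CDR sequences, proposed from the first random library and measured here. Group labels follow the data file (Ctrl: baseline library sampled from a position-specific scoring matrix, with some repeated check sequences; En: ensemble of fine-tuned language models; GP: Gaussian process model; HC: hill climbing; Gen: genetic algorithm; Gibbs: Gibbs sampling; a sequence that several methods proposed may carry one label only). Affinity was read by AlphaSeq, a pooled yeast mating assay with surface-displayed partners. Pairs that bind mate more often; barcode pairs of the diploids are counted by sequencing. The ratio of observed to expected reads was calibrated, replicate by replicate, on BCL2-family standards whose Kd was known from biolayer interferometry. There are six technical replicates.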

Each variant is given by its three light chain CDRs, as the data file delimits them; those of the parent are KSSQSVLYESRNKNSVA, WASTRES, QQYHRLPLS.
Kd is apparent (estimated from mating counts) and averaged on the log scale over replicates with a signal. Smaller is tighter.
A pair that was not seen in any replicate is written "nd"; this usually means weak binding, but a binder can also be missed.
As a blank, each scFv also met three strains without target: over all light chain designs, 4% of these pairings were detected, typically at 430 nM and seldom below 38 nM.
The authors' rule: three or more of the six replicates give a measured affinity, fewer mean a poor binder.
Values of this round are not directly comparable with the first-round values of the same sequences.

| CDR-L1 | CDR-L2 | CDR-L3 | group | Kd | seen in |
|---|---|---|---|---|---|
| NMNVSEDQWPSSKNAIA | QDTLRNL | QQYASLPLS | En_Gibbs | 140 nM | 6 of 6 |
| KLSQSVLYESRNKNSVA | EASQRMS | QQYHRLPLS | GP_Gen | 300 pM | 6 of 6 |
| KSSQSVLYESRNKNSVA | KASTRES | QQYHRIPLS | Ctrl | 790 nM | 5 of 6 |
| TLYGLTNSMSKNKNNVA | EMSTREA | QQYDRLPLV | En_Gen | 7.7 nM | 6 of 6 |
| KLPQSELYESRNKNSVA | EASTRED | QQYHRLPLS | GP_Gen | 410 pM | 6 of 6 |
| MITGAMELEWSNKNPVA | SATDRAP | QSYFRLPLM | En_Gibbs | 7.8 nM | 6 of 6 |
| HISMLTLQGMRHRNSVA | QMTTREN | QQYDRLPLA | En_Gen | 5.4 nM | 6 of 6 |
| KQEISVLQESRNQNSVA | SASTREV | QQYHRLPLS | GP_Gibbs | 1.9 nM | 6 of 6 |
| YVSQSVLYESRNKNSVA | NASTRES | QQYHRLPLS | GP_Gen | 1.5 nM | 6 of 6 |
| KVSQSVLYENRNKNSVA | DASTRES | QQYHRLPLS | GP_Gen | 680 pM | 6 of 6 |
| MIYGQQRELGLMANSIA | DNVTRYD | QQYERLPLS | En_Gen | 11 µM | 3 of 6 |
| KQSQSVLMESRNWNSVA | DASTRES | QQYVRLPLS | GP_HC | 790 pM | 6 of 6 |
| TISGVMQQMTHSKSNVA | EVSTRLE | QQYVRLPLA | En_Gen | 1.6 nM | 6 of 6 |
| KSSQSVLWESFNKNSVA | WASTRLS | QQYHRLPLS | Ctrl | 380 nM | 5 of 6 |
| KSSQSWLYESRNKNSVA | YASTGES | QLYHRLPLS | Ctrl | nd | 0 of 6 |
| KLQWSVMLQSRNKNSVA | QASTRMM | QQYHRLPLS | GP_Gibbs | 3.4 nM | 6 of 6 |
| QISMLLNFESYKTNNVA | QMETRVV | QQYDRLPLT | En_Gen | 21 nM | 6 of 6 |
| KLMQSLQGEPKDWYAIA | EGESATT | QQYARLPLM | En_Gibbs | nd | 0 of 6 |
| SIDEYQWYHEAVNQNIA | DAEAVRP | QQYFMLPLS | En_Gibbs | 21 nM | 6 of 6 |
| TLSQNMDMLSRNVNSVA | DLTTRGN | QQYHRLPLS | En_HC | 860 pM | 6 of 6 |
| KESQSVPFEWRNKNSVA | DASTREQ | QQYHRLPLS | GP_HC | 600 pM | 6 of 6 |
| KITLIFSNKGNSDHSVA | NAETLAH | QQYYMLPLM | En_Gibbs | 1.4 nM | 6 of 6 |
| KSSQLEYYEDRNKMSVA | NASYRLS | QQYHRLPLS | GP_Gibbs | 1.5 nM | 6 of 6 |
| KSSQSVLWESRNMNSVA | WASTRES | QQYHRLPLS | Ctrl | 260 nM | 4 of 6 |
| KVSQSFLYESRNKNAVA | DASTRES | QQYHRLPLS | GP_HC | 360 pM | 6 of 6 |
| KMSQSMLYESRNKNSVA | NASTRES | QQYHRLPLS | GP_Gen | 440 pM | 6 of 6 |
| KYSQSYLYESRNKNSVA | GASTRES | QQYHRLPLS | GP_HC | 830 pM | 6 of 6 |
| NMQMQDDLMLNAKQNVA | GVDMREE | QQYFRLPFL | En_Gibbs | 1.5 nM | 6 of 6 |

Further variants, results first:

| Kd | seen in | CDR-L1 | CDR-L2 | CDR-L3 | group |
|---|---|---|---|---|---|
| 1.2 nM | 6 of 6 | KLSQSVGYESRNKNSVA | NASTRMS | QQYHRLPLS | GP_Gen |
| 120 nM | 5 of 6 | HMSMITLQGMRHRNSVA | QMTTRVN | QQYDHLPLS | En_Gen |
| 1.1 nM | 6 of 6 | KLQQSTLYESRNKNSVA | SASTREE | QQYHRLPLS | GP_HC |
| 400 pM | 6 of 6 | QIYQAMHTLSQNKDNVA | DVNERGQ | QQYYRLPLS | En_Gen |
| 3.6 nM | 6 of 6 | TLTQVQGMSSHNKNSVA | DLSTRGS | QQYHRLPLS | En_HC |
| 63 nM | 2 of 6 | KSSESVLREDRNKNSVA | WASTRES | PQYHRLPLS | Ctrl |
| 1.2 nM | 6 of 6 | KSSDVYLYESRNKNSVA | GASTRES | QQYHRLPLS | GP_HC |
| 3.1 nM | 6 of 6 | KFGQGVHVESIMTNSIA | QTSTREE | QQYDRLPLS | En_HC |
| 1.3 nM | 6 of 6 | KLTNVTGTEKVKGNNVA | EMETRER | QQYNRLPLA | En_Gen |
| 490 pM | 6 of 6 | KVSMQQLYSSRNKNSVA | DASTRES | QQYHRLPLS | GP_Gibbs |
| 2.8 nM | 6 of 6 | KISGMSNHQSSIHNNVA | ENVTRVQ | QQYFRLPLS | En_Gen |
| 280 nM | 2 of 6 | IITQSVMQESRNKSNVA | NTSERES | QQYDRLPLI | En_HC |
| 40 nM | 6 of 6 | HMSMLTLTGMRHRNSVA | QMTTREN | QQYDRLPLA | En_Gen |
| 1.2 nM | 6 of 6 | KSSISYLYESRNKNSVA | EASTREE | QQYHRLPLM | GP_HC |
| 400 pM | 6 of 6 | KLQQSWEYESRNKNNVA | MGSQREV | QQYHRLPLS | GP_Gibbs |
| 920 pM | 6 of 6 | KSSISYEYESRNKNSVA | AASTRES | QQYHRLPLS | GP_HC |
| 99 nM | 5 of 6 | NISHFMDVTAKHNNNVA | EMTMREQ | QQYHHLPLS | En_Gen |
| 210 nM | 1 of 6 | IVSQLMLWGLHAKNSIA | EAVTRYN | QQYDRLPLI | En_Gen |
| nd | 0 of 6 | GQSISVLYESTNKNSVA | WADTRES | QQYHRLPLS | Ctrl |
| 1.5 nM | 6 of 6 | KLPQSVQYESRNKNSVA | SASTRES | QQYHRLPLS | GP_Gen |
| 27 nM | 6 of 6 | NLAMALEQGILIKNNIA | SDNLREN | QQYERLPLI | En_Gibbs |
| 2.6 nM | 6 of 6 | KLGATMNTESTKRNNVA | DLVEREN | QQYFRLPLS | En_Gen |
| 150 nM | 6 of 6 | KSQQSVLYESRNKNSVA | WASTRES | QQYHRLPLS | Ctrl |
| nd | 0 of 6 | KSSQSVLAESRNKNSVA | QASTRES | QQYHRKPLS | Ctrl |
| 350 pM | 6 of 6 | KISQSVLYSSRNKNSLA | EASTRES | QQYHRLPLS | Ctrl |
| 720 pM | 6 of 6 | KLMEQAEYESRNKNSVA | QASTREM | QQYHRLPLS | GP_Gibbs |
| 11 nM | 6 of 6 | KSSQSVLYESRMHNSVA | AASTRES | QTYHRLPLS | Ctrl |
| 20 nM | 6 of 6 | MISQLYNMGSFAINSVA | QASIRNS | QQYDRLPLM | En_Gen |

Picked from the list: the 7 lowest averages where every replicate gave a value.

| CDR-L1 | CDR-L2 | CDR-L3 | group | Kd | seen in |
|---|---|---|---|---|---|
| KLSQSVLYESRNKNSVA | EASQRMS | QQYHRLPLS | GP_Gen | 300 pM | 6 of 6 |
| KISQSVLYSSRNKNSLA | EASTRES | QQYHRLPLS | Ctrl | 350 pM | 6 of 6 |
| KVSQSFLYESRNKNAVA | DASTRES | QQYHRLPLS | GP_HC | 360 pM | 6 of 6 |
| KLQQSWEYESRNKNNVA | MGSQREV | QQYHRLPLS | GP_Gibbs | 400 pM | 6 of 6 |
| QIYQAMHTLSQNKDNVA | DVNERGQ | QQYYRLPLS | En_Gen | 400 pM | 6 of 6 |
| KLPQSELYESRNKNSVA | EASTRED | QQYHRLPLS | GP_Gen | 410 pM | 6 of 6 |
| KMSQSMLYESRNKNSVA | NASTRES | QQYHRLPLS | GP_Gen | 440 pM | 6 of 6 |

Data: MIT Lincoln Laboratory AlphaSeq set, Li et al. 2023, doi:10.1038/s41467-023-39022-2, as distributed in FLAb.